Test results taken from PubChem BioAssay AID651710 (Broad Institute, 2012).
The list shows a part of the results, in another mix than the full data. Calls of active or inactive are those of the source.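 How the source made its calls: active means every replicate showing at least 50% inhibition; inconclusive means mean inhibition at least 50% but not in every replicate; inactive means the rest.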

Protein sequences, listed by entry. Tags and fused reporters are not part of them. Lines headed by an entry give the natural chain unless they say otherwise; changes in a name come on top.
UniProt P43351: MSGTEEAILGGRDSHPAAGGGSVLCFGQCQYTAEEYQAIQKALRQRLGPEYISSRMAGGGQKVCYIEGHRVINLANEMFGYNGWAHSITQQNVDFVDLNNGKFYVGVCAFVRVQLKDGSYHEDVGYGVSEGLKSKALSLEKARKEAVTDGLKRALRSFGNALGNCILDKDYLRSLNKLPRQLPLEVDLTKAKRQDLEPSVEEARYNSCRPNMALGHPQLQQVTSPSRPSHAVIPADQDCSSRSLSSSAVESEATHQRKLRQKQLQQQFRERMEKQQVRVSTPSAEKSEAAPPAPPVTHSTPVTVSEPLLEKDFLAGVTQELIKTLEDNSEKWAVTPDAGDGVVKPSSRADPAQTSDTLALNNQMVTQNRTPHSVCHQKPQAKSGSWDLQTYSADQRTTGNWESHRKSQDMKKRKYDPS

Target: DNA repair protein RAD52 homolog (Homo sapiens) (UniProt P43351)
Experiment: blockers of RAD52 strand annealing activity – biochemical, FRET, single point, set 2, primary screen (AID 651710)
Conditions: recombinant RAD52 DNA annealing, FRET fluorescence; at 18.7 µM; stronger effect = higher value

| SMILES | inhibition |
| --- | --- |
| CN(C(=O)Cc1ccc(Cl)c(Cl)c1)[C@H]1CCCC[C@@H]1N1CCCC1 | inactive: -6.53% |
| O=P(Nc1nc2ccc(Cl)cc2s1)(c1ccccc1)c1ccccc1 | inactive: -4.32% |
| CN(C)P(=O)(N(C)C)n1c(Nc2ccccc2)nnc1-c1ccccc1 | inactive: 2.92% |
| CCCC1OP(N)(=O)OCC1CC (stereo not given) | inactive: -1.26% |
| CC(=O)Nc1ccc([As](=O)(O)O)cc1 | inactive: -0.67% |
| O=C(O)c1ccccc1[As](=O)(O)O | inactive: -5.53% |
| Nc1cccc2ccc([As](=O)(O)O)cc12 | inactive: -38.7% |
| CN(C(=O)Cc1ccccc1)C1CC[C@@]2(CCCO2)C[C@@H]1N1CCCC1 (stereo not given in full) | inactive: -63.5% |
| O=P1(N(CCCl)CCCl)OCCC2CCCCN21 (stereo not given) | inactive: 3.76% |
| Cc1ccc(NP(=O)(Oc2cccc(C)c2)Oc2cccc(C)c2)nc1 | inactive: 1.68% |
| c1ccc(-c2nn[nH]n2)c(-c2nn[nH]n2)c1 | inactive: -16.9% |
| CCNC(=S)/N=C(\N)N[N+](=O)[O-] | inactive: -5.79% |
| O=C(NC1CCS(=O)(=O)C1)NP(=S)(Oc1ccccc1)Oc1ccccc1 (stereo not given) | inactive: -1.9% |
| O=c1c2cc([N+](=O)[O-])ccc2[nH]c2c([N+](=O)[O-])cc([N+](=O)[O-])cc12 | inactive: -9.92% |
| CN(C)C(=O)Oc1noc2ccccc12 | inactive: -7.25% |
| CC(NC(=O)COC(=O)C(O)(c1ccccc1)c1ccccc1)c1ccccc1 (stereo not given) | inactive: -7.33% |
| Cc1ccccc1OP(=O)(Nc1ccccn1)Oc1ccccc1C | inactive: -17.5% |
| O=C(OC1CN2CCC1CC2)c1ccccc1 (stereo not given) | inactive: -6.42% |
| Cc1ccc(OP(=O)(Nc2ccccn2)Oc2ccc(C)cc2)cc1 | inactive: -21.7% |
| CC(C)(C)C(=O)NC(Sc1ccccc1)C(Cl)(Cl)Cl (stereo not given) | inactive: -4.85% |
| CCc1cc(O)c([N+](=O)[O-])c(C)c1[N+](=O)[O-] | inactive: -13.9% |
| CCOc1ccc(C2=NCC(CBr)S2)cc1 (stereo not given) | inactive: -5.17% |

| SMILES | inhibition |
| --- | --- |
| CC(=O)Nc1ccc(Oc2c([N+](=O)[O-])cc([N+](=O)[O-])cc2[N+](=O)[O-])cc1 | inactive: -9.33% |
| CC(=O)Nc1ccc([As](=O)(O)O)c(O)c1 | inactive: -4.69% |
| C[C@H]1OP(=O)(Oc2ccccc2)C[C@@H]2O[C@@H]21 (stereo not given in full) | inactive: -5.6% |
| C[C@@H]1C=CCP(=O)(Oc2ccccc2)O1 (stereo not given in full) | inactive: 1.42% |
| Cc1ccccc1CN(C)C(=O)COC(=O)C(O)(c1ccccc1)c1ccccc1 | inactive: -15% |
| COC(=O)C1(C)COP(=O)(NCc2ccccc2)OC1 (stereo not given) | inactive: -5.94% |
| CC(=O)c1ccc(N2CC2c2ccncc2)cc1 (stereo not given) | inactive: -6.35% |
| N#C/C(=C\c1ccc(N(CCBr)CCBr)cc1)C(N)=O | inactive: 0.155% |
| C[C@H]1OP(=O)(Oc2ccccc2)[C@H](O)[C@H](O)[C@H]1N=[N+]=[N-] (stereo not given in full) | inactive: -1.03% |
| O=P(Nc1nc2ccccc2s1)(c1ccccc1)c1ccccc1 | inactive: -0.229% |
| O=P(Nc1ccccn1)(c1ccc(Br)cc1)c1ccc(Br)cc1 | inactive: -2.89% |
| CN(C)C1(CNC(=O)c2ccc(Cl)c(S(N)(=O)=O)c2)CCCCC1 | inactive: -7.54% |
| COc1ccc(N)c([N+](=O)[O-])c1[N+](=O)[O-] | inactive: 7.19% |
| Nc1ccc(CCCCOc2ccccc2)cc1 | inactive: -13.4% |
| C(Cc1nn[nH]n1)Cc1nn[nH]n1 | inactive: -6.42% |
| Nc1ccc([As](=O)(O)c2ccc([N+](=O)[O-])cc2)cc1 | inactive: -5.63% |
| C/C(N)=N\P(=O)(OCc1ccccc1)OCc1ccccc1 | inactive: -3.93% |
| O=[As](O)(c1ccccc1)c1ccc(O)cc1 | inactive: 8.56% |
| O=[N+]([O-])c1ncn(CCn2cnc([N+](=O)[O-])n2)n1 | inactive: -12.1% |
| CC(=O)NC(SC(=S)N(C)C)C(Cl)(Cl)Cl (stereo not given) | inactive: -18.9% |
| CN(C)C1(CNC(=O)c2ccc(S(C)(=O)=O)cc2)CCCCC1 | inactive: -6.84% |
| CCCC1OP(=O)(Nc2ccccc2)OCC1CC (stereo not given) | inactive: -3.17% |

| SMILES | inhibition |
| --- | --- |
| O=C(/C=C/c1ccccc1)OC1CN2CCC1CC2 (stereo not given) | inactive: -5.33% |
| CC1CCC(C(C)C)C(OP(=O)(Nc2ccccn2)c2ccccc2)C1 (stereo not given) | inactive: -8.93% |
| Cc1ccc(C(=O)OC2CN3CCC2CC3)cc1 (stereo not given) | inactive: -8.19% |
| Nc1cccc([As](=O)(O)c2ccccc2)c1 | inactive: -1.14% |
| O=[As](O)(c1cccs1)c1cccs1 | inactive: -6.35% |
| NS(=O)(=O)c1cccc(NC(=O)COC(=O)C(O)(c2ccccc2)c2ccccc2)c1 | inactive: -9.32% |
| Cc1ccc(S(=O)(=O)N(CCCN)CCCc2c(C)nc(N)[nH]c2=O)cc1 | inactive: -17.6% |
| CC(C)(C)C(=O)NC(Sc1ncccn1)C(Cl)(Cl)Cl (stereo not given) | inactive: -11.4% |
| O=P1(N(CCCl)CCCl)NCCC(C(F)(F)F)O1 (stereo not given) | inactive: -10.8% |
| CCOP(=O)(NC(=NC(C)c1ccccc1)NC(C)c1ccccc1)OCC (stereo not given) | inactive: -10.7% |
| CCC1=CC2Cc3nc4ccc(Cl)cc4c(N)c3C(C1)C2 (stereo not given) | inactive: -0.776% |
| CCOP(=O)(Nc1ccc(C)cn1)OCC | inactive: -4.85% |
| CN(CCCl)Cc1cc(Cl)c(NC2=NCCN2)c(Cl)c1 | active: 71.2% |
| CN(C(=O)Cc1ccc(Cl)c(Cl)c1)C1CCCC[C@@H]1N1CCCC1 (stereo not given in full) | inactive: -6.51% |
| CC(C)/C=N\N=C(\N)N[N+](=O)[O-] | inactive: -11.8% |
| CN(C(=O)Cc1ccc(Cl)c(Cl)c1)[C@@H]1CCCC[C@H]1N1CCCC1 | inactive: 6.09% |
| COc1ccccc1CNC(=O)COC(=O)C(O)(c1ccccc1)c1ccccc1 | inactive: 1.1% |
| O=[As](O)(c1cccc(O)c1)c1cccc(O)c1 | inactive: -1.06% |
| O=C(OC1CN2CCC1CC2)c1ccc(Cl)cc1 (stereo not given) | inactive: 8.57% |
| CS(=O)(=O)c1ccc(Cl)c(NC(=O)COC(=O)C(O)(c2ccccc2)c2ccccc2)c1 | inactive: 3.56% |
| O=[As](O)(O)c1cccnc1 | inactive: -13.6% |
